Data from patent US20050196403A1.

Legend:
[1] = molecular target: HLA-A*6802 (Human); assay: competition vs 125I probe, purified HLA; details: remark: other sources report otherwise
[2] = molecular target: HLA-A*0206 (Human); assay: competition vs 125I probe, purified HLA; details: remark: other sources report otherwise
[3] = molecular target: HLA-A*2401 (human); assay: competition with 125I probe peptide, purified HLA class I

Row | Binder | IC50 [3] | other results
1 | KMFBQLAKV (here or on the partner: B = alpha-amino butyric acid at position 4) [p53.132B4V9 KMFBQLAKV] |  | IC50 [1]: 8890 nM
2 | ALNKMFCQLA [p53.129 … (10-mer)] |  | IC50 [2]: 4620 nM
3 | TYLWWVNNQSL [52.0144 … CEA.353] | 46.2 nM | 
4 | TYLWWVNGQSL [52.0147 … CEA.531] | 92.3 nM | 
5 | LYWVNGQSF [57.0042 … CEA.533.Y2F9] | 15.8 nM | 
